ChEMBL document CHEMBL5385866, “Switch type I to type II TRK inhibitors for combating clinical resistance induced by xDFG mutation for cancer therapy” (Eur J Med Chem, 2023)

Protein sequences, listed by entry. Tags and fused reporters are not part of them. Lines headed by an entry give the natural chain unless they say otherwise; changes in a name come on top.
UniProt P07333, whole entry: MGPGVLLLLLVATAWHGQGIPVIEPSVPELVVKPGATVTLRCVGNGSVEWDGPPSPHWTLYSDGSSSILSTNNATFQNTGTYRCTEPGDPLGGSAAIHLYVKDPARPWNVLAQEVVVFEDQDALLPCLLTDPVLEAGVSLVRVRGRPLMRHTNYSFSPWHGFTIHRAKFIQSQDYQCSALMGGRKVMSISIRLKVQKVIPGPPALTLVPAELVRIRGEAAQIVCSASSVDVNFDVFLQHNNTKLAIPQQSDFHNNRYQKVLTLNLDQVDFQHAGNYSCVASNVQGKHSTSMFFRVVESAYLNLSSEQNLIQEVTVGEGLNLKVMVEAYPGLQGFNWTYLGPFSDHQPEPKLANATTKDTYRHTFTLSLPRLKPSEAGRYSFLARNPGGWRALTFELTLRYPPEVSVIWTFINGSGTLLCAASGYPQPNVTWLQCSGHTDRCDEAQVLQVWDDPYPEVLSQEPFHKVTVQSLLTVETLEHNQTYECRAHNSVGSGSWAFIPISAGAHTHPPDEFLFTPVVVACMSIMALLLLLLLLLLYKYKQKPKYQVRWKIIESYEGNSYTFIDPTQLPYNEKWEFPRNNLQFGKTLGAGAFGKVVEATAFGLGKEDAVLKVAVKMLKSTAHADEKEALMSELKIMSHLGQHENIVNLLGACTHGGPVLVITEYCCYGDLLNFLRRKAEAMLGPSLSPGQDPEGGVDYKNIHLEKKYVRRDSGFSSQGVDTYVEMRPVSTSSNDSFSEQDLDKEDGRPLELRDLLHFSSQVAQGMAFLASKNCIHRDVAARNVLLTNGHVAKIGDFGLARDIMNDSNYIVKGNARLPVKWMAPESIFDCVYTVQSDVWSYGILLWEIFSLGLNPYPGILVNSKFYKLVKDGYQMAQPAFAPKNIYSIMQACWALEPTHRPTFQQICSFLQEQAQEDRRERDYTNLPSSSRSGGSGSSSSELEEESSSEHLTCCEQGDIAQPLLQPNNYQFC
UniProt P10721, whole entry: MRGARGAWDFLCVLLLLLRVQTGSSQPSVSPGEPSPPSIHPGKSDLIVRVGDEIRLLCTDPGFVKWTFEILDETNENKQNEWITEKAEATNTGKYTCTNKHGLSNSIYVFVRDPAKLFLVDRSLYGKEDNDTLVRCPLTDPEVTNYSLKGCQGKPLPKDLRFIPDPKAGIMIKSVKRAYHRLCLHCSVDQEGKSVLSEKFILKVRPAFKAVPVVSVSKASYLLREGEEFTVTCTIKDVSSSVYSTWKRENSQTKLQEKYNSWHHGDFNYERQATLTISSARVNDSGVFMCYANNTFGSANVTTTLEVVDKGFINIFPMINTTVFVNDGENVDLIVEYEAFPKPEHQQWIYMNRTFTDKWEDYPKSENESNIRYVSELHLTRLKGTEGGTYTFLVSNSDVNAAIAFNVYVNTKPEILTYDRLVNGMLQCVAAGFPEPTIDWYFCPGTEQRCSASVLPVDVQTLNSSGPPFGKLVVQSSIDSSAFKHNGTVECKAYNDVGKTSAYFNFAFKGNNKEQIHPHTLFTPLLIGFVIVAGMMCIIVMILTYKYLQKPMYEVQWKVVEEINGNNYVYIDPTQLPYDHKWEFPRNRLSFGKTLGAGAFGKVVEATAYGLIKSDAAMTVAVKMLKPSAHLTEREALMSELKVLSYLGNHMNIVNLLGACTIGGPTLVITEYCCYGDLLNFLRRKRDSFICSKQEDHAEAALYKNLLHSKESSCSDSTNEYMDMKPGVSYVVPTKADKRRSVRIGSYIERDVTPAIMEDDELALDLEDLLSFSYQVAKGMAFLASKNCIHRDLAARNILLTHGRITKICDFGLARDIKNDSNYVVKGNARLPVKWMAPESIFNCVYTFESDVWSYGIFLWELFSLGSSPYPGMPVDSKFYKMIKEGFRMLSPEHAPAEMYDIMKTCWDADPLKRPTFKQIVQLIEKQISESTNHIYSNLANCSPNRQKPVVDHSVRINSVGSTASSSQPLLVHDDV
UniProt P36888, whole entry: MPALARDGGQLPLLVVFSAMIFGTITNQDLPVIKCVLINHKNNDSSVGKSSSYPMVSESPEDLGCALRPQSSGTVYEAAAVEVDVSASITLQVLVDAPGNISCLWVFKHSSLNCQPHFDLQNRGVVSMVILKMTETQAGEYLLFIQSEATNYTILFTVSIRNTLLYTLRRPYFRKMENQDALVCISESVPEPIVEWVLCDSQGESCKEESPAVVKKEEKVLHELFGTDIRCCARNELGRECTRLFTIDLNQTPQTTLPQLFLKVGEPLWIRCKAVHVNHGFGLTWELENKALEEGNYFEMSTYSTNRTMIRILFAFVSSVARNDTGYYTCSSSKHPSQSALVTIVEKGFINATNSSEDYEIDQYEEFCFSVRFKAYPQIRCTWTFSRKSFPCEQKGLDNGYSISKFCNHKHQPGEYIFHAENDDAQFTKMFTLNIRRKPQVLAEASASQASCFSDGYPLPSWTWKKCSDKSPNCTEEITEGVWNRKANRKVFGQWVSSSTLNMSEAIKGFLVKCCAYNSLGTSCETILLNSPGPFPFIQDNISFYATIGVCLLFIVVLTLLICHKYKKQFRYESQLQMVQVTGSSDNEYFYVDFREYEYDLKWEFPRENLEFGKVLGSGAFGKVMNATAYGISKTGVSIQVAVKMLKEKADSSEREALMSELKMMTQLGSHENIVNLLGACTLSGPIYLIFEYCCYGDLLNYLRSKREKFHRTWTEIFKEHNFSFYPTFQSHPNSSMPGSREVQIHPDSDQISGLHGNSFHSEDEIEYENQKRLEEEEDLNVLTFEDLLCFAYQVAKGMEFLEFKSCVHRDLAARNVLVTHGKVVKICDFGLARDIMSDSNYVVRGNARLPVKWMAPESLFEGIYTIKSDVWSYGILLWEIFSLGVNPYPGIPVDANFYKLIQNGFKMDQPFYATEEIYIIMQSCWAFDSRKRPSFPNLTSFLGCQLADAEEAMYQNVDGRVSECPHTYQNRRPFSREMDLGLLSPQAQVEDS
UniProt P35968, whole entry: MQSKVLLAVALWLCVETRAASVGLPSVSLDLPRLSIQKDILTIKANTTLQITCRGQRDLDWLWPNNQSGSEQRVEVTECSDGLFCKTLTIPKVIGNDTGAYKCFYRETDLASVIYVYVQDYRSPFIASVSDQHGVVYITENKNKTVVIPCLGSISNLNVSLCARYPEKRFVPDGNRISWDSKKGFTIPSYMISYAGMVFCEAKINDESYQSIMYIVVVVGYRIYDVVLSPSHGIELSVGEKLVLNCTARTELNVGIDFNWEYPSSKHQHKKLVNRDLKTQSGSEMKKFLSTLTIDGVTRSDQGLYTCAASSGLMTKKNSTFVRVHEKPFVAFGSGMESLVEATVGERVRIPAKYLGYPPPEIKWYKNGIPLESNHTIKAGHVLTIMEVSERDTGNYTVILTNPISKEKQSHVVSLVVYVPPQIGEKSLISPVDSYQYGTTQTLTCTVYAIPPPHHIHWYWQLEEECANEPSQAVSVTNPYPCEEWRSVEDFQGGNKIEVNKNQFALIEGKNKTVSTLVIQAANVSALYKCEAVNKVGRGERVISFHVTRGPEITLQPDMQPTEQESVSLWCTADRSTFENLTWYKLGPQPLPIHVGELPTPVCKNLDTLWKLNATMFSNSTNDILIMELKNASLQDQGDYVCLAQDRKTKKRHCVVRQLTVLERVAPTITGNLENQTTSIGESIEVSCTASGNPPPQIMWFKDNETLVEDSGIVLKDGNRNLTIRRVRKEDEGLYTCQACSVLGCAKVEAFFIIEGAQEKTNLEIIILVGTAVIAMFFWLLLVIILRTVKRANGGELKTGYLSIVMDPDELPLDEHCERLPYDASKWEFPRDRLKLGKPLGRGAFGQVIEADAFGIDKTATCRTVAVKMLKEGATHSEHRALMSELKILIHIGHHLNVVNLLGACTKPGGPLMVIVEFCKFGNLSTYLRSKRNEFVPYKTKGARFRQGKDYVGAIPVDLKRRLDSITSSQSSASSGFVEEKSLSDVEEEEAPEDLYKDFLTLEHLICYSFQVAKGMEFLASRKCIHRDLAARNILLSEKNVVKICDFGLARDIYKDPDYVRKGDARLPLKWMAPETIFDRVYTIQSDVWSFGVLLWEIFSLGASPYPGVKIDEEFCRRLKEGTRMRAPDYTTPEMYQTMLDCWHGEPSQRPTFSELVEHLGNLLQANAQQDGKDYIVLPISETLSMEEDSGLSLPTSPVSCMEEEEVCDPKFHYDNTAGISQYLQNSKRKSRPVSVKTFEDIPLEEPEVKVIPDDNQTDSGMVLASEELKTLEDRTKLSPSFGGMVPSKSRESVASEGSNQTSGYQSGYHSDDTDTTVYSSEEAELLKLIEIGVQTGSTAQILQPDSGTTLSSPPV
UniProt Q08345: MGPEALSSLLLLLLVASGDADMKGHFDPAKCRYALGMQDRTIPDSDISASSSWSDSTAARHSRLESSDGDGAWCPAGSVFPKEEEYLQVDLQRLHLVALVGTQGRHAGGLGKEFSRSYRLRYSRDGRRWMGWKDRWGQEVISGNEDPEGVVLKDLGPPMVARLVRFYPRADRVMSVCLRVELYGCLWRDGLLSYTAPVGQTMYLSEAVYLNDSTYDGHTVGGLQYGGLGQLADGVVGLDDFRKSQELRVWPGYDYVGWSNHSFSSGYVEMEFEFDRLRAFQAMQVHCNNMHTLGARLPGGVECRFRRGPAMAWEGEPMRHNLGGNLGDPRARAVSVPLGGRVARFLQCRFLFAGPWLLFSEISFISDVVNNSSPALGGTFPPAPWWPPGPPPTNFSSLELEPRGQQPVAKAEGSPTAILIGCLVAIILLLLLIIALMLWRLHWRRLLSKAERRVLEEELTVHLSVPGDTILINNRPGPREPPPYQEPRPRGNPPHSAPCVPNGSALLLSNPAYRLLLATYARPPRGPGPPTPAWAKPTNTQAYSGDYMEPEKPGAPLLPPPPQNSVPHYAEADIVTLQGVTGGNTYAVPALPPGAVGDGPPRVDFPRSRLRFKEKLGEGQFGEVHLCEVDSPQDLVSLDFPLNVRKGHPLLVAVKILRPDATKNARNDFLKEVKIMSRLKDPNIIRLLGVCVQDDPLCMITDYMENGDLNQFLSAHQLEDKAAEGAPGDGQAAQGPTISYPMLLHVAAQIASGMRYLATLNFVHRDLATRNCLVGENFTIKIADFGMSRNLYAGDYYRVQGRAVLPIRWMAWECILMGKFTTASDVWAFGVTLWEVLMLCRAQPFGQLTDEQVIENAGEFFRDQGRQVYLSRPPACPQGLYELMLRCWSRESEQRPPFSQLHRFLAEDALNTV
UniProt P07949, whole entry: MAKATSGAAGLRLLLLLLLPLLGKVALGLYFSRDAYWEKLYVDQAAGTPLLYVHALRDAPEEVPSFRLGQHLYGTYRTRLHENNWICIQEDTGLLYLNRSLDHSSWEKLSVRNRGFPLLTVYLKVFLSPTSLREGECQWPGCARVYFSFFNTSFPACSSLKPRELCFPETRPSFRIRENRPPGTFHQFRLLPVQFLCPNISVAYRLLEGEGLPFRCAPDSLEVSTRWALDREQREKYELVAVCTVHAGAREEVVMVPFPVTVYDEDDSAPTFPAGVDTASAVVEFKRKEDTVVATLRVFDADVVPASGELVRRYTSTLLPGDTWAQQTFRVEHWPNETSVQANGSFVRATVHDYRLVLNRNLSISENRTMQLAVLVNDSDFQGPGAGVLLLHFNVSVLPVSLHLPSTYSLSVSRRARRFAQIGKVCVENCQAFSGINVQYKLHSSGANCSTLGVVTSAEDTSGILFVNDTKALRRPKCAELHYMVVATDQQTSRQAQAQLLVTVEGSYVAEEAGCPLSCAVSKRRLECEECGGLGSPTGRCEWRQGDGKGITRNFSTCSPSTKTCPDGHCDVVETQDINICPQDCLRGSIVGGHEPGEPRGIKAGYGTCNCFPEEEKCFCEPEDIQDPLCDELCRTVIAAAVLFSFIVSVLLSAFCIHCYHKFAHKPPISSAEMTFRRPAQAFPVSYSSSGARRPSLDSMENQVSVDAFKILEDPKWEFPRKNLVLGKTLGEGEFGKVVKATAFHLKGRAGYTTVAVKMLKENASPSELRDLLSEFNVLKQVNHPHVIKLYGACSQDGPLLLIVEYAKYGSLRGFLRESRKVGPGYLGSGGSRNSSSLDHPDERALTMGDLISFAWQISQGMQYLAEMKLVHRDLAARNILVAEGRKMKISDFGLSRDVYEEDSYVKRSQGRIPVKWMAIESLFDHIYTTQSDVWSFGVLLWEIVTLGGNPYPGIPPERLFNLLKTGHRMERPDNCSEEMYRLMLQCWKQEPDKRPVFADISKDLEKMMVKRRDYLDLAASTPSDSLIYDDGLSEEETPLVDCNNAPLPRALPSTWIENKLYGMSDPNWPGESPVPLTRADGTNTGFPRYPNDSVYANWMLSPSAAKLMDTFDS

Experiments:
[1] = molecular target: Macrophage colony-stimulating factor 1 receptor (Homo sapiens) (UniProt P07333); experiment: Inhibition of CSF1R (unknown origin) at 1 uM relative to control
[2] = molecular target: Mast/stem cell growth factor receptor Kit (Homo sapiens) (UniProt P10721); experiment: Inhibition of KIT (unknown origin) at 1 uM relative to control
[3] = molecular target: Receptor-type tyrosine-protein kinase FLT3 (Homo sapiens, UniProt P36888); experiment: Inhibition of FLT3 (unknown origin) at 1 uM relative to control
[4] = molecular target: Vascular endothelial growth factor receptor 2 (Homo sapiens, UniProt P35968); experiment: Inhibition of VEGFR2 (unknown origin) at 1 uM relative to control
[5] = molecular target: Epithelial discoidin domain-containing receptor 1 (Homo sapiens) (UniProt Q08345); experiment: Inhibition of DDR1 (unknown origin) at 1 uM relative to control
[6] = molecular target: T1, Discoidin domain-containing receptor 2 (Homo sapiens) (UniProt Q16832); experiment: Inhibition of DDR2 (unknown origin) at 1 uM relative to control
T1 sequence (whole entry): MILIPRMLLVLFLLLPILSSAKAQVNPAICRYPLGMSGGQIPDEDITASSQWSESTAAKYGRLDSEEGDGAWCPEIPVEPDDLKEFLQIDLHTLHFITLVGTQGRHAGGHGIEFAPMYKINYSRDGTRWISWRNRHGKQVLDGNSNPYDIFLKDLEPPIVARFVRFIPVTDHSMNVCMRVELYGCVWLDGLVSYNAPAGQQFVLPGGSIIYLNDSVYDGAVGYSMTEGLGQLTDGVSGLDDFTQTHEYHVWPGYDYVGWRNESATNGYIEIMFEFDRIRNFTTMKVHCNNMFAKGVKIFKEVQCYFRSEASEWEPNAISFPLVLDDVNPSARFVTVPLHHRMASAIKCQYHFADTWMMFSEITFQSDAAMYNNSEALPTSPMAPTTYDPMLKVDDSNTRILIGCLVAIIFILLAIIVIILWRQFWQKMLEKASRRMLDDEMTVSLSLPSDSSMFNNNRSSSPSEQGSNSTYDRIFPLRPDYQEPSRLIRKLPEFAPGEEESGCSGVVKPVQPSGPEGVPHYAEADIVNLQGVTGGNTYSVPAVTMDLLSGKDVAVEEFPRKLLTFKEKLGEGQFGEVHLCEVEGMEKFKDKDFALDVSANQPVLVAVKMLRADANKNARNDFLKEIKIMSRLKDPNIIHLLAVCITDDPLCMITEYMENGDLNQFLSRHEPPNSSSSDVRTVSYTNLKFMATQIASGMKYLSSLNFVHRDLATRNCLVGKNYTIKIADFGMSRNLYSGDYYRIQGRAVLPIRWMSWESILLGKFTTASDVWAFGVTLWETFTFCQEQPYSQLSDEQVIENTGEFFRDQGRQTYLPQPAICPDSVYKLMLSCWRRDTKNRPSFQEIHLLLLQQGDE

[7] = molecular target: Proto-oncogene tyrosine-protein kinase receptor Ret (Homo sapiens, UniProt P07949); experiment: Inhibition of RET (unknown origin) at 1 uM relative to control

inhibition [1]: 70%
inhibition [2]: 70%
inhibition [3]: > 90%
inhibition [4]: > 90%
inhibition [5]: 70%
inhibition [6]: 70%
inhibition [7]: > 90%
Compound: CN1CCN(Cc2ccc(NC(=O)[C@@H]3CCN(c4ccc5ncc(-c6ccccn6)n5n4)C3)cc2C(F)(F)F)CC1
